The entries are a selection whose mix differs from that of the whole data set. Activity calls are given as the source filed them.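 Rule for the calls: active = inhibition above the mean of all tested compounds plus 3 SD, cutoff set per campaign (cut at about 30% in these data); inactive = the rest.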

The chains behind the UniProt entries cited, without tags or fusion partners.
UniProt Q07817, whole entry: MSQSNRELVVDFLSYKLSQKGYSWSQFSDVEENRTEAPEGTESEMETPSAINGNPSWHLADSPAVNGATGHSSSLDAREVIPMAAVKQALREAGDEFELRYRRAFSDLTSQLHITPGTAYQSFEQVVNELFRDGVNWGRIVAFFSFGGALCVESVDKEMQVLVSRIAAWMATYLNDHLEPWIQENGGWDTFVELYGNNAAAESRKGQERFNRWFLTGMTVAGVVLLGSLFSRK

This test addresses Bcl-2-like protein 1 (Homo sapiens) (UniProt Q07817). The experiment in a line: inhibitors of human Bcl-xL, primary screen, biochemical, fluorescence polarization, HTS (AID 2129).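 Note: 0% = DMSO wells and 100% = unlabeled Bim-BH3 peptide competitor; inhibitors lower millipolarization by displacing the labeled peptide.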 Conditions: GST-Bcl-xL / FITC-Bim BH3 peptide fluorescence polarization; at 10.9 µM; active compounds read high.
For the molecule `CCc1ccc(OP(C)(=O)O)cc1`, the inhibition is inactive: 5.96%.

Turning to `O=C(NC(Sc1ccncn1)C(Cl)(Cl)Cl)c1ccccc1` (configuration not stated), the inhibition is inactive: 10.8%.

By inhibition is commonly meant the change of the read-out against control, counted positive when it falls.
